# Values of other authors, collected in PMC6237158, “HPLC–UV assay for the evaluation of inhibitors of plasma amine oxidase using crude bovine plasma” (Journal of Enzyme Inhibition and Medicinal Chemistry, 2018).
# System: MAO B
# Conditions: 0.1 µM; pre-incubation conditions; cited from earlier work
smiles,measurement,value
C#CCN(C)[C@H](C)Cc1ccccc1 [selegiline],reduction of MAO B activity,more than 95%
